In the experiment the target is human PANK3 (Homo sapiens (Human), UniProt Q9H999). Briefly: PANK activity assay (radiochemical, D-[1-14C]pantothenate). The format is biochemical. The settings on record: 5 nM human PANK3, 2.5 mM ATP, 45 μM pantothenate, 10 min at 37° C.; average ± data range. The protocol:
The PanK activity and Surface Plasmon Resonance assays were conducted as explained in the literature.
If the IC^50 was determined to be in the nM range then the assay was repeated in the presence of 0-1 μM or 0-0.1 μM compound to more precisely determine the IC^50. All the experiments were repeated twice in duplicate and the data were an average ±data range.
The experiments mimicking the mixture of ligands present in vivo were performed under different conditions. […] The IC^50 values for the structure-activity study were calculated by fitting the inhibition data to a one-site model of the Michaelis-Menten equation. […] Thus, the data were fit to Morrison's quadratic equation (GraphPad software) that accounts for the impact of enzyme inhibitor binding on the free concentration of inhibitor.

Protein sequences, listed by entry. Tags and fused reporters are not part of them. Lines headed by an entry give the natural chain unless they say otherwise; changes in a name come on top.
UniProt Q9H999: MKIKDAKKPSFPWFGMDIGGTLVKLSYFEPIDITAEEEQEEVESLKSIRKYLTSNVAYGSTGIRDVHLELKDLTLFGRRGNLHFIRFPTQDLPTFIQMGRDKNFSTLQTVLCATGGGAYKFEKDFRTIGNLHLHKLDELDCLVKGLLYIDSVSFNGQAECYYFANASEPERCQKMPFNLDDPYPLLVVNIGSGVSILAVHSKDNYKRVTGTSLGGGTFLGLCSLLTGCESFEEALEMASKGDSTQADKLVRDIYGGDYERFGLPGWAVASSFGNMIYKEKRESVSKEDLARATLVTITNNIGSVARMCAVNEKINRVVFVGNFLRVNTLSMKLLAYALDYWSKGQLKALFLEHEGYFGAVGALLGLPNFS

As for `C[C@@H]1CN(C(=O)Cc2ccc(N(C)C)cc2)CCN1c1ccc(Cl)nn1` [PZ-4109], the IC50 is 10.6 ± 1 nM.
In turn, `C[C@H]1CN(C(=O)Cc2ccc(N(C)C)cc2)CCN1c1ccc(Cl)nn1` [PZ-4110] yielded a 50% inhibitory concentration (IC50) of 10.7 ± 0.6 nM.

The values above are taken from patent publication US12534451B2, “Small molecule modulators of PanK” (St. Jude Children's Research Hospital, priority 2019, dated 2026).
